# According to PubChem BioAssay AID743263 (The Scripps Research Institute Molecular Screening Center, 2014):
# Sequences of proteins named here, by UniProt entry; tags and fusion partners are left off. A change or cut given only in a name is not applied to a line headed by its entry.
# UniProt O95551: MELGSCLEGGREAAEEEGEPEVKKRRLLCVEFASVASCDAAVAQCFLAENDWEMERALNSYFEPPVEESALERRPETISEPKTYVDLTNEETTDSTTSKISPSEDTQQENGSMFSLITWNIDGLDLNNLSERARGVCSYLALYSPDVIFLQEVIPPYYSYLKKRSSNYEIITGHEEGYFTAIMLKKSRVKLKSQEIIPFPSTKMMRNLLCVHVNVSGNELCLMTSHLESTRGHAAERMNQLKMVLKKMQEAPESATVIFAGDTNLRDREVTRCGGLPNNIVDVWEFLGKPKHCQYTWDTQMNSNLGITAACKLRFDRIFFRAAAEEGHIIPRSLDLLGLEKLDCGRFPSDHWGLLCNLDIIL
# Only a part is listed here, and it is no random draw. Calls of active or inactive are those of the source. Cut-off read from the data, not from the text of the source: active = inhibition above about 25%; inactive = the rest.
# Target: Tyrosyl-DNA phosphodiesterase 2 (Homo sapiens) (UniProt O95551)
# Experiment: human TDP2 enzyme inhibitors, retest, confirmation, biochemical, epi absorbance, recombinant enzyme (AID 743263);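 note: 0% = vehicle with enzyme and 100% = no enzyme buffer only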
# Details: recombinant human TDP2, absorbance read-out; at 12.8 µM; active compounds read high
row,Structure (SMILES),inhibition
1,Nc1cccc2ccc([As](=O)(O)O)cc12,active: 68.2%
2,CC(=O)c1ccc(N2CC2c2ccncc2)cc1 (stereo not drawn),inactive: 6%
3,Nc1cccc2c([As](=O)(O)O)cccc12,active: 39%
